Results: PubChem BioAssay AID434973 (Sanford-Burnham Center for Chemical Genomics, 2010)
The entries are a selection whose mix differs from that of the whole data set. Activity calls are given as the source filed them.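 Rule for the calls: active = inhibition above about 50% at the single test dose (limit read from the data); inactive = the rest.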

Amino acid sequences for entries named in this document (tags omitted). Residues count along the entry.
UniProt Q9BQF6, 706-1050 limits assumed: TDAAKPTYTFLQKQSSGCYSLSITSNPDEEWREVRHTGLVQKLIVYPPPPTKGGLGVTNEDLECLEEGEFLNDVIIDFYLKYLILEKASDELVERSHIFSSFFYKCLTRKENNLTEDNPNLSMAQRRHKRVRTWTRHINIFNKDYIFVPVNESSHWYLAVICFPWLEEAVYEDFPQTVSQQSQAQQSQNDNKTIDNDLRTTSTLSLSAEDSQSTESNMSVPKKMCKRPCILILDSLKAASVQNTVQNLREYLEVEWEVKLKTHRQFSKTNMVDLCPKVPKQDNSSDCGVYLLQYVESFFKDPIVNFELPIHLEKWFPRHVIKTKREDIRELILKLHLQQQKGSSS

What follows are compounds tested against Sentrin-specific protease 7 (Homo sapiens) (UniProt Q9BQF6) (assay: SENP7 protease inhibitors, primary screen, biochemical, luminescence, uHTS (AID 434973;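 note: plate controls were DMSO with enzyme for no effect and no enzyme buffer wells for full effect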)). Conditions: recombinant SENP7, Z-RLRGG-aminoluciferin luminescence, 40 min; at 5 µM; active compounds read high.

Row | SMILES | inhibition
1 | CC(C)(C)OC(=O)N1CCC(N(C(=O)c2ccccc2)c2ccc(Cl)cc2)CC1 | inactive: 6.04%
2 | N#Cc1ccc(C(=O)NCC2(N3CCCCC3)CCCCC2)cc1 | inactive: 10.4%
3 | CCCN1CCC(Nc2cc(OC)cc(OC)c2)CC1 | inactive: 8.14%
4 | c1ccc(CN2CCC(Nc3ccccc3)CC2)cc1 | inactive: -10.4%
5 | CN(C)C1(CNC(=O)c2cccc(C#N)c2)CCCCC1 | inactive: -7.4%
6 | O=C(NCC1(N2CCOCC2)CCCCC1)c1cc(Br)ccc1Cl | inactive: -3.93%
7 | COc1cc(C(=O)NCC2(N3CCOCC3)CCCCC2)cc(OC)c1C | inactive: 3.59%
8 | COc1ccc(C(=O)NCC2(N3CCOCC3)CCCCC2)cc1OC | inactive: 1.38%
9 | N/C(=N\O)c1c(N)no[n+]1[O-] | inactive: -10.2%
10 | CCOC(=O)N1CCC(Nc2ccc(C)cc2)CC1 | inactive: 3.82%
11 | O=C(OC1CN2CCC1CC2)C1c2ccccc2C=Cc2ccccc21 (configuration not stated) | inactive: 5.46%
12 | CCc1cc(C(=O)NCC2(N3CCCCC3)CCCCC2)sc1C | inactive: 1.33%
13 | CN1CCC(Nc2ccc(F)c(Cl)c2)CC1 | inactive: 11.4%
14 | CCOc1ncccc1C(=O)NCC1(N2CCOCC2)CCCCC1 | inactive: 3.54%
15 | CCCOc1ccc(C(=O)NCC2(N(C)C)CCCCC2)cc1 | inactive: -1.71%
16 | O=C(O)C1(Nc2ccccc2)CCN(Cc2ccccc2)CC1 | inactive: -6.53%
17 | CC(C)(C)OC(=O)N1CCC(Nc2ccccc2)CC1 | inactive: 5.34%
18 | CCC(CO)(C(=O)OC1CN2CCC1CC2)c1ccccc1 (configuration not stated) | inactive: 6.93%
19 | COc1cc(OC)cc(C(=O)NCC2(N3CCOCC3)CCCCC2)c1 | inactive: -5.25%
20 | COc1cccc(C(=O)N(c2cc(C)cc(C)c2)C2CCN(C(=O)OC(C)(C)C)CC2)c1 | inactive: -3.88%
21 | CCCOc1ccc(C)cc1CN(CCCl)CCCl | inactive: 8.48%
22 | CN1CCC(Nc2ccc(Cl)cc2)CC1 | inactive: -5.84%
23 | COc1cc(OC)cc(C(=O)NCC2(N3CCCCC3)CCCCC2)c1 | inactive: -4.81%

Row | SMILES | inhibition
24 | Fc1ccccc1NC1CCN(Cc2ccccc2)CC1 | inactive: -12%
25 | Cc1ccc(C(=O)NCC2(N3CCCCC3)CCCCC2)o1 | inactive: -4%
26 | CCN1CCC(Nc2cccc(F)c2)CC1 | inactive: -0.183%
27 | CN(C)c1ccc(C(=O)NCC2(N3CCCCC3)CCCCC2)cc1 | inactive: -3.18%
28 | O=C(NCC1(N2CCCCC2)CCCCC1)c1ccco1 | inactive: -4.9%
29 | CCOc1ccc(C)cc1CN(CCCl)CCCl | inactive: 6.16%
30 | COc1ccc(NC2CCN(CCc3ccccc3)CC2)c(OC)c1 | inactive: -4.48%
31 | CCOC(=O)N1CCC(Nc2ccc(F)cc2)CC1 | inactive: 9.84%
32 | O=C(NCC1(N2CCCCC2)CCCCC1)c1ccc(F)cc1 | inactive: -6.23%
33 | CCCCOc1ccc(C(=O)NCC2(N3CCOCC3)CCCCC2)cc1 | inactive: -14%
34 | Cc1ccc(OCC(C)C)c(CN(CCCl)CCCl)c1 | inactive: -1.13%
35 | CCOC(=O)N1CCC(Nc2cccc(C)c2)CC1 | inactive: 1.66%
36 | O=C(NCC1(N2CCCCC2)CCCCC1)c1cccs1 | inactive: 5.04%
37 | O=C(NCC1(N2CCCCC2)CCCCC1)c1ccc(=O)[nH]c1 | inactive: -4.83%
38 | CC(C)(C)OC(=O)N1CCC(N(C(=O)c2ccccc2)c2ccc(F)cc2)CC1 | inactive: 3.16%
39 | COc1ccc(C(=O)NCC2(N3CCCCC3)CCCCC2)c(OC)c1OC | inactive: -4.52%
40 | COc1ccc(C(=O)NCC2(N3CCCCC3)CCCCC2)cc1 | inactive: 1.86%
41 | CSc1ccccc1C(=O)NCC1(N2CCCCC2)CCCCC1 | inactive: -7.33%
42 | O=C(NCC1(N2CCOCC2)CCCCC1)c1cc2ccccc2o1 | inactive: 7.04%
43 | Cc1cc(C)cc(N(C(=O)c2ccccc2)C2CCN(C(=O)OC(C)(C)C)CC2)c1 | inactive: 5.7%
44 | O=C(NCC1(N2CCCCC2)CCCCC1)c1ccc(Cl)nc1 | inactive: -1.07%
45 | CCOC(=O)N1CCC(Nc2ccc(OC)cc2)CC1 | inactive: -8.03%
46 | COc1ccc(Cl)cc1C(=O)NCC1(N2CCOCC2)CCCCC1 | inactive: 7.04%

Row | SMILES | inhibition
47 | O=C(OC1CN2CCC1CC2)C1c2ccccc2Oc2ccccc21 (configuration not stated) | inactive: 2.5%
48 | N#CC1(Nc2ccccc2)CCN(Cc2ccccc2)CC1 | inactive: 2.67%
49 | O=C(NCC1(N2CCCCC2)CCCCC1)c1ccc(Cl)s1 | inactive: 8.02%
50 | CN(C)c1cccc(C(=O)NCC2(N3CCCCC3)CCCCC2)c1 | inactive: 6.65%
51 | COc1ccc(CN(CCCl)CCCl)cc1Cl | inactive: 3.45%
52 | CC(C)c1ccc(NC2CCN(C(=O)OC(C)(C)C)CC2)cc1 | inactive: -3.36%
53 | O=C(NCC1(N2CCOCC2)CCCCC1)c1cc(F)c(F)cc1Cl | inactive: -6.57%
54 | COc1cc(OC)c(C(=O)NCC2(N(C)C)CCCCC2)cc1OC | inactive: -2.76%
55 | O=C(NCC1(N2CCCCC2)CCCCC1)c1cncc(Br)c1 | inactive: 2.48%
56 | CN1CCC(Nc2cccc(F)c2)CC1 | inactive: -2.5%
57 | O=C(NCC1(N2CCCCC2)CCCCC1)c1ccc(OC(F)F)cc1 | inactive: -1.44%
58 | CSc1ccc(C(=O)NCC2(N3CCOCC3)CCCCC2)cc1 | inactive: 5.53%
59 | O=C(NCC1(N2CCCCC2)CCCCC1)c1cccc([N+](=O)[O-])c1 | inactive: 4.43%
60 | N#CC1(Nc2ccccc2)CCN(CCc2ccccc2)CC1 | inactive: 1.14%
61 | CCN1CCC(Nc2ccc(Cl)cc2)CC1 | inactive: 1.31%
62 | O=C(NCC1(N2CCCCC2)CCCCC1)c1cccc(C(F)(F)F)c1 | inactive: 4.64%
63 | CN1CCN(CCOC(=O)C(O)(c2ccccc2)c2ccccc2)CC1 | inactive: -2.12%
64 | CC(C)c1ccc(C(=O)NCC2(N3CCOCC3)CCCCC2)cc1 | inactive: 1.02%
65 | COc1ccc(NC2CCN(C(=O)OC(C)(C)C)CC2)cc1 | inactive: 12.3%
66 | COc1cc(C(=O)NCC2(N3CCCCC3)CCCCC2)ccc1OC(F)F | inactive: 5.95%
67 | O=C(NCC1(N2CCOCC2)CCCCC1)c1cc(=O)[nH]c2ccccc12 | inactive: -9.29%
